Measured values from patent US20240400693A1 (Chugai, published 2024).

Experiments:
[1] = biological target: HLA-DQ2.5 on IHW09023 cells loaded with 33mer gliadin peptide (human; wheat); test: cell-based or functional assay
[2] = biological target: HLA-DQ2.5 on IHW09023 cells loaded with omega1/2 gliadin peptide (human; wheat); test: cell-based or functional assay
[3] = biological target: T1, HLA-DR on Ba/F3 cells (human, UniProt P01903 26-216; P79483 30-227, limits assumed); test: FACS, Ba/F3 cells; raw MFI
T1 construct: whole, on cells; also called Ba/F3-HLA-DR

[4] = biological target: T2, HLA-DQ2.5 on Ba/F3 cells (human, UniProt P01909 24-216, limits assumed); test: FACS, Ba/F3 cells; %MFI: IC17dK 0, DQN0139bb 100
T2 construct: whole, on cells; MHC class II without fused peptide; also called Ba/F3-HLA-DQ2.5

[5] = biological target: T3, HLA-DQ2.2 on Ba/F3 cells (human, UniProt P01909 24-216, limits assumed); test: FACS, Ba/F3 cells; %MFI: IC17dK 0, DQN0139bb 100
T3 construct: whole, on cells; also called Ba/F3-HLA-DQ2.2

[6] = biological target: T4, HLA-DQ7.5 on Ba/F3 cells (human, UniProt P01909 24-216; P01920 33-230, limits assumed); test: FACS, Ba/F3 cells; %MFI: IC17dK 0, DQN0139bb 100
T4 construct: whole, on cells; also called Ba/F3-HLA-DQ7.5

[7] = biological target: T5, HLA-DQ8 on Ba/F3 cells (human, UniProt P01909 24-216; P01920 33-230, limits assumed); test: FACS, Ba/F3 cells; %MFI: IC17dK 0, DQN0139bb 100
T5 construct: whole, on cells; also called Ba/F3-HLA-DQ8

[8] = biological target: T6, HLA-DQ7.3 on Ba/F3 cells (human, UniProt P01909 24-216; P01920 33-230, limits assumed); test: FACS, Ba/F3 cells; %MFI: IC17dK 0, DQN0139bb 100
T6 construct: whole, on cells; also called Ba/F3-HLA-DQ7.3

B1: DQN0344H0976/L0591//DQN0385H1270/L0681-F6 (bispecific antibody)
heavy 1: QVQLVESGGGVVQPGGSLRLSCAASGFTFSSAYWMVWVRQAPGQGLEWMGAVYGGSDTTYYAKWTEGRFTISRDTSKNTLYLQMNSLRAEDTAVYYCAREPLNYYYYGELNLWGQGTLVTVSSASTKGPSVFPLAPSSKSTSGGTAALGCLVKDYFPEPVTVSWNSGALTSGVHTFPAVLKSSGLYSLSSVVTVPSSSLGTQTYICNVNHKPSNTKVDKRVEPKSCDKTHTCPPCPAPELRRGPSVFLFPPKPKDTLMISRTPEVTCVVVDVSHEDPEVKFNWYVDGVEVHNAKTKPREEQYNSTYRVVSVLTVLHQDWLNGKEYKCKVSNKALPAPIEKTISKAKGQPREPQVYTLPPSREEMTKNQVSLTCLVKGFYPSDIAVEWESNGQPENNYKTTPPYLDSDGSFFLYSKLTVDKSRWQEGNVFSCSVLHEALHAHYTREELSLSP
light 1: DIQMTQSPSSLSASVGDRVTITCQATEEIYSGLAWYQQKPGKAPKLLIYYVSTLYEGIPARFSGSGSGTDFTLTISSLEPEDFAVYYCQTYEDVSAVTFGQGTKVEIKRTVAAPSVFIFPPSDEQLKSGTAEVVCLLNNFYPREAKVQWKVDNALQSGNSEESVTEQDSKDSTYSLSSTLTLSKADYEKHKVYACEVTHQGLSSPVTKSFNRGEC
heavy 2: QVQLVESGGGVVQPGRSLRLSCAASGFTFSEWYFMSWVRQAPGKGLEWVASIDTGSGSIDYAEWVEGRFTISRDNSKNTLYLQMNSLRAEDTAVYYCARDIGIDYNFWGPGTLVTVSSASTKGPSVFPLAPSSKSTSGGTAALGCLVEDYFPEPVTVSWNSGALTSGVHTFPAVLESSGLYSLSSVVTVPSSSLGTKTYICNVNHKPSNTKVDKRVEPKSCDKTHTCPPCPAPELRRGPSVFLFPPKPKDTLMISRTPEVTCVVVDVSHEDPEVKFNWYVDGVEVHNAKTKPREEQYNSTYRVVSVLTVLHQDWLNGKEYKCKVSNKALPAPIEKTISKAKGQPREPQVYTLPPSRKEMTKNQVSLTCLVKGFYPSDIAVEWESNGQPENNYKTTPPYLDSDGSFFLYSKLTVDKSRWQQGNVFSCSVLHEALHAHYTRKELSLSP
light 2: DIQMTQSPSSLSASVGDRVTITCQTTQSISSYLNWYQQKPGQPPKLLIYYASTKAEGIPARFSGSGLGTDFTLTISSLEPEDFAVYYCHYGISKVSFGQGTKVEIKRTVAAPSVFIFPPSDEQLKSGTAKVVCLLNNFYPREAKVQWKVDNALQSGNSKESVTEQDSKDSTYSLSSTLTLSKADYEKHKVYACEVTHQGLSSPVTKSFNRGEC
- IC50 (ng/mL), α1a gliadin TCR, 250 nM 33mer gliadin [1]: 0.58 ng/mL

B2: DQN0344H1013/L0620//DQN0385H1521/L0605-F6 (bispecific antibody)
heavy 1: B1 heavy 1 with G16R, L112V
light 1: B1 light 1 with E28N, Y55A, E56Y
heavy 2: B1 heavy 2 with S30E, E31S
light 2: B1 light 2 with L67S
- IC50 (ng/mL), ω2 gliadin TCR, 250 nM ω1/2 gliadin [2]: 0.19 ng/mL

B3: DQN0344H1013/L0620//DQN0385H1353/L0681-F6 (bispecific antibody)
heavy 1: B1 heavy 1 with G16R, L112V
light 1: B1 light 1 with E28N, Y55A, E56Y
heavy 2: B1 heavy 2 with S30A
light 2: B1 light 2
- binding result [3]: no binding (tested: 0.05 micro g/mL)
- binding result [4]: no binding (tested: 0.05 micro g/mL)
- binding result [5]: no binding (tested: 0.05 micro g/mL)
- binding result [6]: no binding (tested: 0.05 micro g/mL)
- binding result [7]: no binding (tested: 0.05 micro g/mL)
- binding result [8]: no binding (tested: 0.05 micro g/mL)

Substitutions are numbered along the chain they refer to.
